The values below come from PubChem BioAssay AID652257 (The Scripps Research Institute Molecular Screening Center, 2013).

Amino acid sequences for entries named in this document (tags omitted).
UniProt Q99873, whole entry, looked up: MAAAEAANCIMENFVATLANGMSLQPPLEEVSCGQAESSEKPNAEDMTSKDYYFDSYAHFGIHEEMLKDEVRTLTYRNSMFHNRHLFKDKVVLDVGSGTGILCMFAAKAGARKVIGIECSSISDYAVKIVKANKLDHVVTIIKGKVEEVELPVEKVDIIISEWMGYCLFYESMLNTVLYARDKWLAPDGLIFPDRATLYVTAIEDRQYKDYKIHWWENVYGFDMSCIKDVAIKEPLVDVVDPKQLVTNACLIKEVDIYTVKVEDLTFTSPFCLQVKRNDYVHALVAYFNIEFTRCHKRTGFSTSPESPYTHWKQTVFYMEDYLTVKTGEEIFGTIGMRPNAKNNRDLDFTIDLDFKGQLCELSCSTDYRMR

The structures appear in SMILES notation. This is a selection; strong and weak results do not stand in their true shares. Calls of active or inactive are those of the source.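 How the source made its calls: active means inhibition above about 21% made by adding two undisclosed values (limit read from the data); inactive means the rest.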

This assay has as its target Protein arginine N-methyltransferase 1 (Homo sapiens) (UniProt Q99873). The assay can be described thus: human PRMT1 activity-probe blockers – biochemical, fluorescence polarization, primary screen (AID 652257). The conditions noted are these: recombinant PRMT1, activity-based probe fluorescence polarization; at 2.79 µM; active compounds read high. In general terms: Fluorescence polarisation rises when a labelled molecule tumbles more slowly, as on binding a larger partner.
For the compound `CN(C)C1(CNC(=O)c2ccc(Cl)c(S(N)(=O)=O)c2)CCCCC1`, the inhibition – broadly, the relative decrease from the control value, in per cent – was inactive: -2.75%.

In the case of `O=P(Nc1ccccn1)(c1ccc(Br)cc1)c1ccc(Br)cc1`, the inhibition is inactive: 0.61%.

With `Nc1ccc(CCCCOc2ccccc2)cc1`, the inhibition is inactive: 0.97%.

With `COc1ccc(N)c([N+](=O)[O-])c1[N+](=O)[O-]`, the inhibition is inactive: 14.8%.

Take `C[C@H]1OP(=O)(Oc2ccccc2)[C@H](O)[C@H](O)[C@H]1N=[N+]=[N-]` (stereo partly specified): the inhibition was inactive: -4.12%.

With `O=P(Nc1nc2ccccc2s1)(c1ccccc1)c1ccccc1`, the inhibition was inactive: -1.85%.

Turning to `O=[As](O)(c1ccccc1)c1ccc(O)cc1`, the inhibition was inactive: -1.69%.

For the compound `CC(=O)NC(SC(=S)N(C)C)C(Cl)(Cl)Cl` (stereo unspecified), the inhibition is inactive: -0.39%.

For the compound `O=[N+]([O-])c1ncn(CCn2cnc([N+](=O)[O-])n2)n1`, the inhibition is inactive: 1.7%.

Take `O=C(OC1CN2CCC1CC2)c1cccc(Cl)c1` (stereo unspecified): the inhibition was inactive: -1.64%.

Turning to `Nc1ccc([As](=O)(O)c2ccc([N+](=O)[O-])cc2)cc1`, the inhibition is inactive: -1.42%.

Turning to `C(Cc1nn[nH]n1)Cc1nn[nH]n1`, the inhibition was inactive: -1.13%.

For the compound `C/C(N)=N\P(=O)(OCc1ccccc1)OCc1ccccc1`, the inhibition is inactive: -2.03%.

Regarding `O=P(Nc1nccs1)(c1ccccc1)c1ccccc1`, the inhibition is inactive: -2.26%.

`CC(C)C(=O)NC(Sc1ccccc1)C(Cl)(Cl)Cl` (stereo unspecified): the inhibition is inactive: -0.51%.

Regarding `c1nnnn1CCn1cnnn1`, the inhibition was inactive: -1.38%.

On to `CCOc1ccc(C2=NCC(CBr)S2)cc1` (stereo unspecified), for which the inhibition was inactive: 0.44%.

As to `O=P1(Nc2nc3ccc(Cl)cc3s2)COc2ccccc2O1` (stereo unspecified), the inhibition was inactive: 4.01%.

Consider `CC(C)(C)C(=O)NC(Sc1ccccc1)C(Cl)(Cl)Cl` (stereo unspecified), for which the inhibition is inactive: -4.83%.

`CCc1cc(O)c([N+](=O)[O-])c(C)c1[N+](=O)[O-]`: the inhibition was inactive: -0.77%.

In the case of `C[C@@H]1C=CCP(=O)(Oc2ccccc2)O1` (stereo partly specified), the inhibition is inactive: 1.22%.

As for `C[C@H]1OP(=O)(Oc2ccccc2)C[C@@H]2O[C@@H]21` (stereo partly specified), the inhibition is inactive: -1.64%.

In the case of `Cc1ccccc1CN(C)C(=O)COC(=O)C(O)(c1ccccc1)c1ccccc1`, the inhibition was inactive: 3.91%.

With `COC(=O)C1(C)COP(=O)(NCc2ccccc2)OC1` (stereo unspecified), the inhibition was inactive: 2.07%.

In the case of `N#C/C(=C\c1ccc(N(CCBr)CCBr)cc1)C(N)=O`, the inhibition was inactive: -0.37%.

On to `CC(=O)c1ccc(N2CC2c2ccncc2)cc1` (stereo unspecified), for which the inhibition was inactive: -1.37%.

Regarding `CC(=O)Nc1ccc(Oc2c([N+](=O)[O-])cc([N+](=O)[O-])cc2[N+](=O)[O-])cc1`, the inhibition was inactive: 10.7%.

In the case of `CC(=O)Nc1ccc([As](=O)(O)O)c(O)c1`, the inhibition is inactive: 2.34%.

For `Cc1ccc(NP(=O)(Oc2cccc(C)c2)Oc2cccc(C)c2)nc1`, the inhibition is inactive: -1.49%.

For `c1ccc(-c2nn[nH]n2)c(-c2nn[nH]n2)c1`, the inhibition was inactive: -1.01%.

As to `O=C(NC1CCS(=O)(=O)C1)NP(=S)(Oc1ccccc1)Oc1ccccc1` (stereo unspecified), the inhibition is inactive: 1.84%.

Regarding `CCNC(=S)/N=C(\N)N[N+](=O)[O-]`, the inhibition was inactive: -3.08%.

`O=P1(N(CCCl)CCCl)OCCC2CCCCN21` (stereo unspecified): the inhibition is inactive: -1.03%.

`CCC(=O)N1C2C3N(C(=O)CC)C1C1N(C(=O)CC)C(C(N1C(=O)CC)N3C(=O)CC)N2C(=O)CC`: the inhibition was inactive: 1.28%.

As to `O=C(OC1CN2CCC1CC2)c1ccccc1` (stereo unspecified), the inhibition was inactive: 1.4%.

`CC(=O)NC(SC(=S)N(CC(C)C)CC(C)C)C(Cl)(Cl)Cl` (stereo unspecified): the inhibition was inactive: -0.1%.

As to `Cc1ccc(OP(=O)(Nc2ccccn2)Oc2ccc(C)cc2)cc1`, the inhibition is inactive: 0.91%.

As for `COC(=O)c1cc2c(s1)N=C(c1ccccc1)N(C)P2(=O)N1CCOCC1` (stereo unspecified), the inhibition was inactive: -4.56%.

Turning to `CN(C)C(=O)Oc1noc2ccccc12`, the inhibition is inactive: -1.93%.

On to `O=c1c2cc([N+](=O)[O-])ccc2[nH]c2c([N+](=O)[O-])cc([N+](=O)[O-])cc12`, for which the inhibition was inactive: 0.4%.

For `Cc1ccccc1OP(=O)(Nc1ccccn1)Oc1ccccc1C`, the inhibition was inactive: 7.52%.

Consider `CC(NC(=O)COC(=O)C(O)(c1ccccc1)c1ccccc1)c1ccccc1` (stereo unspecified), for which the inhibition is inactive: -1.74%.

`CN(C)P(=O)(N(C)C)n1c(Nc2ccccc2)nnc1-c1ccccc1`: the inhibition was inactive: 1.19%.

Consider `O=P(Nc1nc2ccc(Cl)cc2s1)(c1ccccc1)c1ccccc1`, for which the inhibition is inactive: -2.25%.

Consider `CCCC1OP(N)(=O)OCC1CC` (stereo unspecified), for which the inhibition was inactive: -4.08%.

As for `O=C(O)c1ccccc1[As](=O)(O)O`, the inhibition is inactive: -1.44%.

On to `CC(=O)Nc1ccc([As](=O)(O)O)cc1`, for which the inhibition is inactive: 1.99%.

On to `CCn1c(=O)n(C2CCN(CC3CCCCCCC3)C[C@H]2CO)c2ccccc21` (stereo partly specified), for which the inhibition was inactive: -5.09%.

Regarding `CN(C(=O)Cc1ccc(Cl)c(Cl)c1)[C@H]1CCCC[C@@H]1N1CCCC1`, the inhibition was inactive: 3.87%.

Turning to `Cc1ccc(NP(=O)(Oc2ccccc2F)Oc2ccccc2F)nc1`, the inhibition is inactive: -3.48%.

On to `CCOP(=O)(Nc1ccccc1)OCC`, for which the inhibition was inactive: -0.18%.

Consider `Cc1cc(SC(NC(=O)c2ccc(F)cc2)C(Cl)(Cl)Cl)ncn1` (stereo unspecified), for which the inhibition is active: 67.6%.

As to `Nc1cccc2ccc([As](=O)(O)O)cc12`, the inhibition was inactive: 5.7%.

As for `CCN(N=Nc1nonc1N)c1nonc1N`, the inhibition was inactive: -1.79%.

Turning to `CN(C(=O)Cc1ccccc1)C1CC[C@@]2(CCCO2)C[C@@H]1N1CCCC1` (stereo partly specified), the inhibition is inactive: -0.28%.

Consider `Cc1ccc(N/C(=N/P(=O)(N2CCOCC2)N2CCOCC2)N2CCOCC2)cc1`, for which the inhibition was inactive: -0.75%.

As for `CN(C(=O)Cc1ccc(Cl)c(Cl)c1)[C@H]1CCCC[C@H]1N1CCCC1`, the inhibition is inactive: -10.4%.

As for `NC(=O)c1cc([N+](=O)[O-])cc([N+](=O)[O-])c1N`, the inhibition is inactive: -1.89%.

`Clc1ccc(Cl)c(NC2=NCC(CBr)S2)c1` (stereo unspecified): the inhibition was inactive: 9.12%.

As to `CN1CCCC(OC(=O)C(c2ccccc2)c2ccccc2)C1` (stereo unspecified), the inhibition is inactive: -1.67%.

On to `Cc1ccc(OP(=O)(Nc2nccs2)Oc2ccc(C)cc2)cc1`, for which the inhibition was inactive: 3.9%.

For the compound `COc1ccccc1OP(=O)(Nc1ccc(C)cn1)Oc1ccccc1OC`, the inhibition is inactive: 4.24%.

On to `O=C(NC(Sc1ccncn1)C(Cl)(Cl)Cl)c1ccccc1` (stereo unspecified), for which the inhibition is active: 80.1%.

As to `Oc1ccccc1CNc1ccccn1`, the inhibition is inactive: -2.12%.

On to `CC(C)CC(=O)NC(Sc1ccc(Cl)cc1)C(Cl)(Cl)Cl` (stereo unspecified), for which the inhibition is inactive: -1.86%.

As for `Nc1cc(N)c2nonc2c1[N+](=O)[O-]`, the inhibition is inactive: -1.07%.

Take `COc1ccc(C2=NCC(CBr)S2)cc1` (stereo unspecified): the inhibition is active: 30.8%.

Take `O=[N+]([O-])c1cc([N+](=O)[O-])c(CCNc2ccccc2)c([N+](=O)[O-])c1`: the inhibition is active: 22.9%.

Regarding `CCc1nc2c(n1)c1c(non1O)c1c2no[n+]1[O-]`, the inhibition was inactive: -1.27%.

As to `Cc1ccc(NP(=O)(Oc2ccccc2)Oc2ccccc2)nc1`, the inhibition is inactive: -2.01%.

For the compound `CC(=O)N1C2C3N(C(C)=O)C1C1N(C(C)=O)C(C(N1C(C)=O)N3C(C)=O)N2C(C)=O`, the inhibition is inactive: -0.49%.

With `O=[N+]([O-])c1cccc2n[nH]nc12`, the inhibition was inactive: 0.61%.

Regarding `CCN(/C(=N/P(=O)(N1CCOCC1)N1CCOCC1)N1CCOCC1)c1ccc(OC)cc1`, the inhibition is inactive: 2.78%.

Turning to `C[N+]1=C2C=CC=CC=C2SC12C([N+](=O)[O-])=CC([N+](=O)[O-])=C[C-]2[N+](=O)[O-]` (stereo unspecified), the inhibition is active: 60.7%.

With `Nc1ccc([As](=O)(O)c2ccc(N)cc2)cc1`, the inhibition is inactive: 3.48%.

With `c1cc(-c2nn[nH]n2)ccc1-c1nn[nH]n1`, the inhibition is inactive: 5.4%.

As to `CC1CCN(C(=O)Oc2c(Cl)cc(Cl)c3cccnc23)CC1`, the inhibition is inactive: 1.25%.

With `CN(C)C(=O)OCCc1n(C)cc[n+]1C`, the inhibition was inactive: 0.19%.

With `CC(C)=N/N=C(\N)N[N+](=O)[O-]`, the inhibition was inactive: -2.32%.

Regarding `CC(C)c1nc(Nc2ccccc2)n(P(=O)(N(C)C)N(C)C)n1`, the inhibition is inactive: -5.8%.

Take `O=P1(N(CCCl)CCCl)OCCCS1` (stereo unspecified): the inhibition was inactive: 2.26%.

In the case of `O=C(Nc1cc([As](=O)(O)O)ccc1O)c1ccccc1`, the inhibition is inactive: 2.69%.

For `O=[N+]([O-])c1ncn(CCn2ncnc2[N+](=O)[O-])n1`, the inhibition is inactive: 4.34%.

With `CC(C)(C)C(=O)NC(Sc1ccncn1)C(Cl)(Cl)Cl` (stereo unspecified), the inhibition is active: 32.7%.

On to `O=C(O)CNc1ccc([As](=O)(O)O)cc1`, for which the inhibition was inactive: 2%.

As for `O=[N+]([O-])c1cccc(NC2=NCC(CBr)S2)c1` (stereo unspecified), the inhibition is inactive: 15.5%.

For the compound `COC(=O)C1(C)COP(=O)(Nc2ccccc2)OC1` (stereo unspecified), the inhibition is inactive: 3.59%.

For `O=C(O)C(O)c1ccc(N(CCCl)CCCl)cc1` (stereo unspecified), the inhibition was inactive: -1.36%.

Consider `CCOC(=O)Nc1ccc([As](=O)(O)O)c(O)c1`, for which the inhibition is inactive: -1.67%.

In the case of `CC1CCNP(=O)(N(CCCl)CCCl)O1` (stereo unspecified), the inhibition was inactive: -3.88%.

Take `COP(=O)(OC)N1CC1c1ccccc1` (stereo unspecified): the inhibition was inactive: -3.47%.

Take `Cc1cc(SC(NC(=O)c2ccccc2)C(Cl)(Cl)Cl)nc(C(C)C)n1` (stereo unspecified): the inhibition is active: 24.6%.

Take `CCCCOc1ccc(C(=O)NCC2(N3CCCCC3)CCCCC2)cc1OC`: the inhibition is inactive: -3.92%.

On to `CCOC(=O)Nc1cccc([As](=O)(O)O)c1`, for which the inhibition was inactive: -0.64%.

On to `Cc1cc(SC(NC=O)C(Cl)(Cl)Cl)ncn1` (stereo unspecified), for which the inhibition is active: 82.7%.

Regarding `O=P(Nc1ccccn1)(c1cccc2ccccc12)c1cccc2ccccc12`, the inhibition is inactive: 0.52%.

With `O=[N+]([O-])c1ccc(Nc2ccc(Oc3ccc([N+](=O)[O-])cc3[N+](=O)[O-])cc2)c([N+](=O)[O-])c1`, the inhibition is inactive: -1.22%.

As to `COC(=O)C1(C)COP(=O)(N2CCCC2)OC1` (stereo unspecified), the inhibition is inactive: -3.77%.

For the compound `COP1(=S)c2c(C)nn(CCC#N)c2N=C(c2ccc(F)cc2)N1C` (stereo unspecified), the inhibition is inactive: 4.51%.

Take `O=C(O)C(=O)c1ccc(N(CCCl)CCCl)cc1`: the inhibition was inactive: -0.17%.

`O=C(Nc1ccncc1[N+](=O)[O-])c1ccc([N+](=O)[O-])cc1[N+](=O)[O-]`: the inhibition is inactive: -2.01%.
